Experimental data: US20160238591A1 (MIT, published 2016)

Experiments:
[1] = molecular target: T1, wild-type CsgA curli amyloid fibrils (Escherichia coli, UniProt P28307); assay: TEM after mixing CdSe/CdS QD-SpyCatcher conjugates with wild-type curli fibrils (FIG. 1O)
T1 construct: Control fibrils without a tag; also called CsgAwt; wild-type curli amyloid fibrils

[2] = molecular target: T2, CsgASpyTag amyloid fibrils (SpyTag-displaying curli amyloid fibrils) (Escherichia coli); assay: TEM, HRTEM, STEM after 30 minutes in 1x PBS at room temperature
T2 construct: Extracellular amyloid fibril polymerised from many secreted subunits; Tested on live E. coli cells, cell-free, or freeze-dried and re-dispersed; also in mixed fibrils with other CsgA variants; The gene encodes the secretion signal; also called SpyTag-displaying amyloid fibrils; SpyTag-encoded fibrils

B1: Cys2-SpyCatcher (other)
chain: MCCSYYHHHHHHDYDIPTTENLYFQGAMVDTLSGLSSEQGQSGDMTIEEDSATHIKFSKRDEDGKELAGATMELRDSSGKTISTWISDGQVKDFYLYPGKYTFVETAAPDGYEVATAITFTVNEQGQVTVNGKATKGDAHI
notes: Tested only as a conjugate on nanocrystals or carbon nanotubes, never as free protein; also called QD-SpyCatcher; CdSe/CdS QD-SpyCatcher conjugates
**Q.** Does B1 bind [1]?
**A.** Result: no binding

**Q.** Does B1 bind [2]?
**A.** Result: binds
